Tests used:
[1] = target: MBT domain-containing protein 1 (Homo sapiens, UniProt Q05BQ5); assay: Inhibition of MBTD1 by alpha-screening
In short: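 AlphaScreen competition of biotinylated methyl-lysine peptide binding to MBT protein. Conditions were L3MBTL3 at 200 nM with 150 nM H2AK36me1, L3MBTL4 at 100 nM with 150 nM H2AK36Me, and MBTD1 at 100 nM with 150 nM H4Kme20. Read-out used nickel chelate acceptor and streptavidin donor beads at 5 µg/mL, or 10 µg/mL for L3MBTL4. Compounds were tested in 10-point 3-fold dilutions (5 nM–100 µM). IC50 came from 4- or 3-parameter fits.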

Sequences of proteins named here, by UniProt entry; tags and fusion partners are left off.
UniProt Q05BQ5, whole entry: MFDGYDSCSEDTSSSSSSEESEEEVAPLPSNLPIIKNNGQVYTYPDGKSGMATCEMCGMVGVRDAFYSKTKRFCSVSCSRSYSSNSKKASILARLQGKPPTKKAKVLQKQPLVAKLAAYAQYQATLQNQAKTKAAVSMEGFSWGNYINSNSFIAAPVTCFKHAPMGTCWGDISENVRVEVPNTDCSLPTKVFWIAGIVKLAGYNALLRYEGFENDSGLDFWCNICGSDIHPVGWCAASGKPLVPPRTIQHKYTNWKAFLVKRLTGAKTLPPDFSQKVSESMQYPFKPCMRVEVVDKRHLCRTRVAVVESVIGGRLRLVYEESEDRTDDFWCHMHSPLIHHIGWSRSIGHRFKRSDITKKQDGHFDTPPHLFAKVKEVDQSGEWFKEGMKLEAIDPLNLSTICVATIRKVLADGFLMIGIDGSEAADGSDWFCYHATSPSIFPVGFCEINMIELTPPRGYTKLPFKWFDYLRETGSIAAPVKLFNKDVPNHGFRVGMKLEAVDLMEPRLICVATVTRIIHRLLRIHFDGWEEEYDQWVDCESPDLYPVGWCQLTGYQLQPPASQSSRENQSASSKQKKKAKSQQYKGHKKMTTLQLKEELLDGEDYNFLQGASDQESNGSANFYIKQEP

[2] = target: T1, Lethal(3)malignant brain tumor-like protein 4 (Homo sapiens, UniProt Q8NA19); assay: Inhibition of L3MBTL4 by alpha-screening
T1 sequence (Q8NA19 whole entry): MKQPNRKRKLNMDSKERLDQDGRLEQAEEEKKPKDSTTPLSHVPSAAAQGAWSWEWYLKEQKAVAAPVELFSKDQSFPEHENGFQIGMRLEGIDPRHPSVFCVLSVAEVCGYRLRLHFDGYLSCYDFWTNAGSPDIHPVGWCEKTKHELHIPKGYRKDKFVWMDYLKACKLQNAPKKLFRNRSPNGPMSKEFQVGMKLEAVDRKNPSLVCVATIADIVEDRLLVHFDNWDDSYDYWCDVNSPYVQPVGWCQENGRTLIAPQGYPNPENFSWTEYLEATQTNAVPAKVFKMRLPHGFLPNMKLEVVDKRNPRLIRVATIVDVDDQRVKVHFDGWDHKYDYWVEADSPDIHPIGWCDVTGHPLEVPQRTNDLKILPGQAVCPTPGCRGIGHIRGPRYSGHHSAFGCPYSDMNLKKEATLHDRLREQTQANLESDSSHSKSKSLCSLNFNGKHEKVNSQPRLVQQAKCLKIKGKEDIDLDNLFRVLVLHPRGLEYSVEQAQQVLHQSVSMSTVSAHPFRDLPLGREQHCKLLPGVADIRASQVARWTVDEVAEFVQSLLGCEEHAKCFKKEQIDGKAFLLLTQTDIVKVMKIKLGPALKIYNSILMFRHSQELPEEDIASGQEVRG

[3] = target: T2, Lethal(3)malignant brain tumor-like protein 3 (Homo sapiens, UniProt Q96JM7); assay: Inhibition of L3MBTL3 by alpha-screening
T2 sequence (Q96JM7 whole entry): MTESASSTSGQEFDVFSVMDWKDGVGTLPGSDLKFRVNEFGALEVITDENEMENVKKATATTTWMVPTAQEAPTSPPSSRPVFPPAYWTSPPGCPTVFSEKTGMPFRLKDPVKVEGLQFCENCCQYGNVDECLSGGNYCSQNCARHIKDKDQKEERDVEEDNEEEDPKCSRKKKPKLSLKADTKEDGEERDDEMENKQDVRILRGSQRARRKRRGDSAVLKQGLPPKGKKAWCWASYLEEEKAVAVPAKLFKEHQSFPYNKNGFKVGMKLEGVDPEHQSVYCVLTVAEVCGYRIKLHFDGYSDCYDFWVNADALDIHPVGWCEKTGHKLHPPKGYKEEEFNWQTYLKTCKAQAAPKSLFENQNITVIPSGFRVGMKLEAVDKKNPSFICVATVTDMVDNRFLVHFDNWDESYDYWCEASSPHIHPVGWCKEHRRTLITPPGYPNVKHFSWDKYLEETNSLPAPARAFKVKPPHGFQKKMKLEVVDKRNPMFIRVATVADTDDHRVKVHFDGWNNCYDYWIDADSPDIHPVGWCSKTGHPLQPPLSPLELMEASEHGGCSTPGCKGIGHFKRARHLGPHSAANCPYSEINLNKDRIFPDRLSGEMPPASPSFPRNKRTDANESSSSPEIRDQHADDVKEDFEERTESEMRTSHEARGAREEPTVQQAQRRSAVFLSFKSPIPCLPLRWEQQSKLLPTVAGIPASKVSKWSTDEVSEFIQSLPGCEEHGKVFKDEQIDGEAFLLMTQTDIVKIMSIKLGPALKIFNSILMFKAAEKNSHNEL

[4] = AlphaScreen counterscreen signal interference at 100 uM

Compound | IC50 [1] [µM] | IC50 [2] [µM] | IC50 [3] [µM] | Activity [4] [%]
CNCCC[C@]12CC[C@H](c3ccccc31)c1ccccc12 | 31 | > 100 | 85 | –
CNCCCCOc1ccccc1Cc1ccccc1 [BIFEMELANE] | > 100 | > 100 | – | 8

— ChEMBL document CHEMBL1275333, “Identification of non-peptide malignant brain tumor (MBT) repeat antagonists by virtual screening of commercially available compounds” (J Med Chem, 2010)
